The values below come from PubChem BioAssay AID1159614 (National Center for Advancing Translational Sciences (NCATS), 2016).

Sequences of proteins named here, by UniProt entry; tags and fusion partners are left off.
UniProt P54803, whole entry G286D: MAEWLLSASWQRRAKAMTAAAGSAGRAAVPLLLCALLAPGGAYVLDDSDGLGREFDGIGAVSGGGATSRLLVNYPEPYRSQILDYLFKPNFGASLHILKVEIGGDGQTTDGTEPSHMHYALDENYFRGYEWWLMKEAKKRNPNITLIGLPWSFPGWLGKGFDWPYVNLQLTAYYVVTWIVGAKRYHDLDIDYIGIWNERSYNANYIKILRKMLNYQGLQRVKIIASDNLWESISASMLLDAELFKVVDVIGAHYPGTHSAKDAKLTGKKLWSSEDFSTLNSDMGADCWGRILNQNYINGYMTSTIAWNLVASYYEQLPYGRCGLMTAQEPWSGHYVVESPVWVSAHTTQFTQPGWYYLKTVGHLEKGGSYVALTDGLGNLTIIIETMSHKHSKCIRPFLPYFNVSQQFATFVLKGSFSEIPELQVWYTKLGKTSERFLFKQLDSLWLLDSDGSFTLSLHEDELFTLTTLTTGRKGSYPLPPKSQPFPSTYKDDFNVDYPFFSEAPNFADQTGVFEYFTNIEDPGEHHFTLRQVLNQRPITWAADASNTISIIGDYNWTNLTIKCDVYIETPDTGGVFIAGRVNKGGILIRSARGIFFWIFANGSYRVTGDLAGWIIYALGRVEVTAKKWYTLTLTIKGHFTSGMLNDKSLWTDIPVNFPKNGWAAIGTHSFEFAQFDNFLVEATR

The entries are a selection whose mix differs from that of the whole data set. Activity calls are given as the source filed them. Calls follow the shape of the dose curve; as a rule, active = well fitted activation curve with a large enough effect; inconclusive = small, poorly fitted or top-dose-only effect; inactive = no such curve, though single readings can be large or run the other way.

This experiment addresses Galactocerebrosidase (Homo sapiens) (UniProt P54803). As to the kind of experiment: A Novel Cell-Based Assay to Identify Small Molecules for B -Galactocerebrosidase. Also: 0% is about no effect; nearly all actives have a fitted effect of over 65% in size. The following applies: 145M-Twi-hGALC-G270D cells (Twitcher mouse brain line with human GALC G270D), HMU-beta-Gal fluorescence, 48 h; at 57.5 µM (top of the series) unless noted.
On to `OCCSCCO`, for which the activation was inactive: -15.9%. For `Cc1cccc([N+](=O)[O-])c1[N+](=O)[O-]` the value was inactive: -17% [at 114 µM]; for `CCOP(=O)(CC)Oc1ccc([N+](=O)[O-])cc1` (stereo not given), inactive: -4.61%.

In the case of `C/C1=C2N=C(/C=C3N=C(/C(C)=C4\[N-][C@@](C)([C@@H]5N=C1[C@](C)(CCC(=O)NC[C@@H](C)OP(=O)([O-])O[C@H]1[C@@H](O)[C@@H](n6cnc7cc(C)c(C)cc76)O[C@@H]1CO)[C@H]5CC(N)=O)[C@@](C)(CC(N)=O)[C@@H]4CCC(N)=O)[C@@](C)(CC(N)=O)[C@@H]\3CCC(N)=O)C(C)(C)[C@@H]/2CCC(N)=O.[C-]#N.[Co+3]`, the activation is inactive: -13.1%. Next, `O=[N+]([O-])c1cccc([N+](=O)[O-])c1`: inactive: -11.4% [at 114 µM].
